Data as given in patent publication US8178524B2, “Noribogaine in the treatment of pain and drug addiction” (Demerx, Inc., priority 1997, dated 2012).

Protein sequences, listed by entry. Tags and fused reporters are not part of them.
UniProt P33535, whole entry: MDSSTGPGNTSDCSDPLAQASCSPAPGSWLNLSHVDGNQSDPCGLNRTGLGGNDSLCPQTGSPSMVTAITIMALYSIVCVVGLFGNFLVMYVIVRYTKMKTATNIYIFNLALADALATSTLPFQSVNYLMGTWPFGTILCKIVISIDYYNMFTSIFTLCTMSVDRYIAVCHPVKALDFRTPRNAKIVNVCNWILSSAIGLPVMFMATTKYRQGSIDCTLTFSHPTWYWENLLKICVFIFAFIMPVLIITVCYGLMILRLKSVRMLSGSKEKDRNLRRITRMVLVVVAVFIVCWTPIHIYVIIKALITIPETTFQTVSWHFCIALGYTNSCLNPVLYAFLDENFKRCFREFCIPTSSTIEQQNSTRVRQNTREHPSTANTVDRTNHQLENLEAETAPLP

Biological target: T1, μ-opioid receptor (Rattus norvegicus, UniProt P33535)
T1 construct: from tissue; host or cells: rat (Sprague Dawley) thalamic membranes
Experiment: Stimulation of [35S]GTPγS binding to rat thalamic membranes (receptor activation of G proteins)
Format: biochemical, Rat (Sprague Dawley)

Compound: C[C@@H](NC(=O)[C@@H](N)Cc1ccc(O)cc1)C(=O)NCC(=O)N(C)[C@@H](Cc1ccccc1)C(=O)NCCO [DAMGO]
- EC50: 7.4 nM
